Source: publication PMC12076188 (Cancer Research Communications, 2025)

System: CR6256 PDX tumors rebounding after sotorasib treatment
Experiment: PDX study on tumors regrown under sotorasib
Type: in vivo, mice
Settings: after 63 days of 100 mg/kg sotorasib; then 100 mg/kg sotorasib, 100 mg/kg glecirasib, 50 mg/kg cetuximab or combination

With “Cetuximab: EGFR-targeted mAb produced by Merck Healthcare KGaA” as the substance, how does the “tumor response of rebound tumors” value read?
Its value is “exhibited resistance”.
